US6756390B2, “Organic acid salt of amlodipine” (CJ Corp., priority 2002, dated 2004)
Like-named read-outs stand apart in the source and are kept apart here.

What was measured:
Type in all cases: physicochemical
[1] = Light stability, 4 weeks at 25° C. with exposure to daylight, HPLC
Text: A measurement was made of the contents of the salts with resort to HPLC under the same conditions as in the chemical stability test.

[2] = Solubility in various solvents at 37° C.
Text: The solubilities (mg/ml) of Table 8 are values based on the weight of amlodipine converted from the salts.

[3] = Chemical stability in solid state, accelerated test at 60° C.

- Color change on light exposure ([1]; 4 weeks, 25° C., daylight): no color change
- Content (HPLC), Stored 4 weeks, 25° C. daylight ([1]; 4 weeks, 25° C., daylight): 98.0%
- Content (HPLC), Initial ([1]; initial): 99.5%
- Solubility [2]: 520 mg/mL
- Solubility ([2]; pH 3): 400≦ mg/ml
- Solubility ([2]; pH 4): 400≦ mg/ml
- Solubility ([2]; pH 6): 400≦ mg/ml
- Solubility ([2]; pH 7): 400≦ mg/ml
- Solubility ([2]; pH 8): 400≦ mg/ml
- Content, storage period 1 week ([3]; 1 week): 99.7%
- Content, storage period 2 weeks ([3]; 2 weeks): 99.3%
- Content, storage period 4 weeks ([3]; 4 weeks): 99.1%
- Content, storage period initial ([3]; initial): 99.7%
Substance: Amlodipine Tetrahydro-5-oxo-2-furancarboxylic acid (Racemate) [TOF salt]
